These results are taken from publication PMC8500838.

This assay deals with biotinylated AviTagged PPP1R15A^583–621 F592A;R595E (human) (UniProt O75807).

On to “G-actin (actin purified from rabbit muscle) (from UniProt P68135 1-377) (natural protein)”, for which the fold decrease in catalytic efficiency (kcat/Km) of eIF2α^P dephosphorylation by PP1A^7–300–PPP1R15A^553–621-MBP F592A;R595E with G-actin, against the wild type worked out at 50 fold.
